One may read the Ki as the equilibrium dissociation constant of an inhibitor or competing ligand from its target. A lower Ki goes with tighter binding.

Chains of the proteins cited; added tags and fusions are not shown. Lines headed by an entry give the natural chain unless they say otherwise; changes in a name come on top.
UniProt Q9Y5N1: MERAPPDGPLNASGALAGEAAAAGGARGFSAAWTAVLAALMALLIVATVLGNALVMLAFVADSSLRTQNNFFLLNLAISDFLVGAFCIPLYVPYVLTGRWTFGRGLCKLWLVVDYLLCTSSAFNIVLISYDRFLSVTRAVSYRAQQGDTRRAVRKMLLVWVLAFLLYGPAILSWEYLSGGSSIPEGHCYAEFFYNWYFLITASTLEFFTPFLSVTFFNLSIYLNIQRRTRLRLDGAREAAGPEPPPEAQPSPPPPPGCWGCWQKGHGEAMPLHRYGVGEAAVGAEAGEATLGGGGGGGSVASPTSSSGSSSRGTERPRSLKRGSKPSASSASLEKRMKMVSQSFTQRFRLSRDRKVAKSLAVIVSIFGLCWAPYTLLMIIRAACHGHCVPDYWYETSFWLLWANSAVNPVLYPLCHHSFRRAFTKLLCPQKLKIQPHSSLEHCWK

This experiment concerns the target Histamine H3 receptor (Homo sapiens, UniProt Q9Y5N1). The experiment is described as follows: Binding affinity for human histamine H3 receptor.
As for `Cc1cccn2cc(-c3ccc(OCCCNCc4ccccc4)cc3)nc12`, the inhibition constant (Ki) came to 5.4 µM.
The same measure for `CCCCN(CCCC)CCCOc1ccc(-c2cn3cc(Br)cc(Br)c3n2)cc1`: 4.8 µM; for `CCCCN(CCCC)CCCOc1ccc(-c2cn3cccc(C)c3n2)cc1`: 2.7 µM; for `CCCCN(CCCC)CCCOc1ccc(-c2cn3cccc(C)c3n2)c(C)c1`: 4.2 µM.
Compound `CCCCN(CCCC)CCCOc1ccc(-c2cn3ccccc3n2)cc1` had a Ki of 1.3 µM.
Turning to `CCCCN(CCCC)CCCOc1ccc(-c2cn3cccc(C)c3n2)cc1C`, the inhibition constant (Ki) stood at 8 µM. Compared with the last compound, the Ki is about 6.2-fold higher.

For the origin of these results see ChEMBL document CHEMBL1134971, “Novel human histamine H(3) receptor antagonists” (Bioorg Med Chem Lett, 2002).
